Results from publication PMC6144582, “The Binding of BF-227-Like Benzoxazoles to Human α-Synuclein and Amyloid β Peptide Fibrils” (Molecular Imaging, 2018).
Values joined by “and” are separate entries in the source; they are usually repeats but may differ in a detail not shown here. Equal entries are not always repeated. Where two headings read alike, the source gives them in different places.

Chains of the proteins cited; added tags and fusions are not shown. Residues count along the entry.
UniProt P05067, 672-713 limits assumed: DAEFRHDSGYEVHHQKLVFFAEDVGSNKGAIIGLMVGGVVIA

Experiments:
[1] = target: Aβ1-42 fibrils (Homo sapiens, UniProt P05067); experiment: Saturation binding of [3H]BF-227 to Aβ1-42 fibrils (filtration); conditions: tested as the radiolabelled form; for Bmax, [3H]BF-227 binding to Aβ fibrils (mean): pmoles tracer per nmoles fibril (as monomer), mean and SD, n=3
[2] = target: human α-Syn fibrils (Homo sapiens, UniProt P37840); experiment: Saturation binding of [3H]BF-227 to α-Syn fibrils (filtration); conditions: tested as the radiolabelled form; for Bmax, [3H]BF-227 binding to α-Syn fibrils (mean): pmoles tracer per nmoles fibril (as monomer), b21 prints pmole/nmole
[3] = Table S1, individual values, listed as [3H]BF-227

## CN(C)c1ncc(/C=C/c2nc3ccc(OCCF)cc3o2)s1
[1]; [3]
  Bmax (pmol/nmol), Aβ1-42 fibrils, individual experiments: 21.3 pmol/nmol and 20.7 pmol/nmol and 16.3 pmol/nmol
[1]
  Bmax, [3H]BF-227 binding to Aβ fibrils (mean): 19.4 (2.7) pmol/nmol
[1]; listed as [3H]BF-227
  Bmax, [3H]BF-227 binding to Aβ fibrils (mean): 19.4 ± 2.7 pmol/nmol
[1]; read-out: KD (nM), Aβ1-42 fibrils, individual experiments, Table S1, individual values, listed as [3H]BF-227
  Kd: 18.5 nM and 13.2 nM and 15.4 nM
[2]; [3]
  Bmax (pmol/nmol), α-Syn fibrils, individual experiments: 13.5 pmol/nmol and 12.0 pmol/nmol
[2]; mean and SD, n=2
  Bmax, [3H]BF-227 binding to α-Syn fibrils (mean): 12.7 (1.1) pmol/nmol
[2]; mean and SD, n=2, listed as [3H]BF-227
  Bmax, [3H]BF-227 binding to α-Syn fibrils (mean): 12.7 ± 1.1 pmol/nmol
[2]; read-out: KD (nM), α-Syn fibrils, individual experiments, Table S1, individual values, listed as [3H]BF-227
  Kd: 47.7 nM and 43.8 nM
[2]; read-out: KD, [3H]BF-227 binding to α-Syn fibrils (mean), saturation binding, single-site model, mean and SD, n=2
  Kd: 46 nM
